Measurements: patent publication US20130095189A1, “COMPOSITION AND METHOD OF PHYTONUTRIENTS FOR METABOLIC PROGRAMMING EFFECTS” (priority 2011, published 2013)

What was measured:
[1] = tested on: 2 year old (CCD-1092sk) normal primary human skin fibroblast cells; assay: WST-1 cell viability / cytotoxicity assay, 2 year old cell model; conditions: 24 hrs, up to 100 μM
[2] = tested on: 1 month old (CCD-32sk) normal primary human skin fibroblast cells; assay type: cell-based; conditions: 1 month old cell model; 24 hrs; up to 100 μM
Description: (§1) The resulting values are used for data analysis.

[3] = tested on: Adult (142Br) normal primary human skin fibroblast cells; assay type: cell-based; conditions: adult cell model; 24 hrs; up to 100 μM
Description: as §1

Measured: change in cell viability compared to control

catechin
No other significant changes: [1] | [2] | [3]
